Measured values as given in ChEMBL document CHEMBL4813962, “Design, synthesis and biological evaluation of sulfamoylphenyl-quinazoline derivatives as potential EGFR/CAIX dual inhibitors” (Eur J Med Chem, 2021).

What was measured:
[1] = organism: Homo sapiens; test: Selectivity index, ratio of IC50 for human carbonic anhydrase 2 to IC50 for human carbonic anhydrase 9
[2] = system: Epidermal growth factor receptor (Homo sapiens), P00533 [T790M]; test: Potency index, ratio of IC50 of gefitinib to IC50 of compound for inhibition of recombinant human N-terminal GST-tagged EGFR T790M mutant (669 to 1210 residues) expressed in baculovirus expression system using peptide as substrate incubated for 2 hrs followed by substrate addition and measured after 30 mins by TR-FRET assay

| SMILES | Ratio IC50 [1] | Ratio IC50 [2] |
| --- | --- | --- |
| NS(=O)(=O)c1ccc(CCNC(=S)Nc2ccc3ncnc(Nc4cccc(C(F)(F)F)c4)c3c2)cc1 | 0.8 |  |
| COc1cc2ncnc(Nc3cccc(C(F)(F)F)c3)c2cc1OCCCCC(=O)Nc1ccc(S(N)(=O)=O)cc1 | 2.4 | 41 |
| NS(=O)(=O)c1ccc(NC(=S)Nc2ccc3ncnc(Nc4cccc(C(F)(F)F)c4)c3c2)cc1 | 0.9 |  |
| COc1cc2ncnc(Nc3ccc(Cl)c(C(F)(F)F)c3)c2cc1OCCCCC(=O)Nc1ccc(S(N)(=O)=O)cc1 | 1.6 |  |
